The record followed here is patent publication US10201563B2, “Method of treating sinusitis, including chronic sinusitis” (SINOX PHARMA, INC., priority 2010, dated 2019).

The test is described as follows: Gargle and nasal spray with ClO2 solution in people with sore throat, cold or sinusitis.

chlorine dioxide: the “familiar sinusitis symptoms (headache, itchy nose, stuffed passages)” value (allergic or non allergic chronic sinusitis) was “gone or greatly reduced in a matter of minutes”. For the same substance, where the note is “clogged nasal passages and apparent infection, in most instances without antibiotics, antifungal agents and/or surgery”, the “major symptoms of chronic sinusitis” value is given as “promptly relieved”.
